Test results taken from PubChem BioAssay AID1508612.
Some tests of the compounds listed are not included; inactive here does not mean inactive elsewhere.

Assay: passive permeability, PAMPA, ADME assay (AID 1508612)
Conditions: pH 7.4, 30.0 min, 50.0 µM

Structure (SMILES): O=C(C1CCC1)N1CCN(C/C=C/c2ccccc2)CC1
- Papp: > 1000 ×10⁻⁶ cm/s
